The source of these data is patent US20080015214A1 (priority 2005, published 2008).

Chains of the proteins cited; added tags and fusions are not shown. Lines headed by an entry give the natural chain unless they say otherwise; changes in a name come on top.
UniProt P41146: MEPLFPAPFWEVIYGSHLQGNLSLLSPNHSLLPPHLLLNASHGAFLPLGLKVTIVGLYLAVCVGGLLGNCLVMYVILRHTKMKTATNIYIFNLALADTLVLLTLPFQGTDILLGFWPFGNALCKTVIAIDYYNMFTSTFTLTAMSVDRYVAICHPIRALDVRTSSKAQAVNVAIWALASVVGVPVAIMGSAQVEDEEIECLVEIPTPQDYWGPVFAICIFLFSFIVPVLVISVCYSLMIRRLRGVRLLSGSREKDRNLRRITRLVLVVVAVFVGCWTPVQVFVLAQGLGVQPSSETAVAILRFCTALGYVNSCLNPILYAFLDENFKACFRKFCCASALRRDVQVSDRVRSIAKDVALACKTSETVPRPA
UniProt P35372, whole entry, looked up: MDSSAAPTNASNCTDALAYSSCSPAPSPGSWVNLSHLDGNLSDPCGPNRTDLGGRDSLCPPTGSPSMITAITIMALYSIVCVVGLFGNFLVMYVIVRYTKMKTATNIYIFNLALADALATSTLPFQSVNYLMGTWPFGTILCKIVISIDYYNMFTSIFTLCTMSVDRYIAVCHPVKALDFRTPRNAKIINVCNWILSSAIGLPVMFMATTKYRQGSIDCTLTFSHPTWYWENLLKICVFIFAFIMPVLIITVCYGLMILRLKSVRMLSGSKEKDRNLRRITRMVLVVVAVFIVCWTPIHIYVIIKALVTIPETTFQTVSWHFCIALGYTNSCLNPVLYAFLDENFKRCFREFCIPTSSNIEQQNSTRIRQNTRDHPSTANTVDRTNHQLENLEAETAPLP
UniProt P41145: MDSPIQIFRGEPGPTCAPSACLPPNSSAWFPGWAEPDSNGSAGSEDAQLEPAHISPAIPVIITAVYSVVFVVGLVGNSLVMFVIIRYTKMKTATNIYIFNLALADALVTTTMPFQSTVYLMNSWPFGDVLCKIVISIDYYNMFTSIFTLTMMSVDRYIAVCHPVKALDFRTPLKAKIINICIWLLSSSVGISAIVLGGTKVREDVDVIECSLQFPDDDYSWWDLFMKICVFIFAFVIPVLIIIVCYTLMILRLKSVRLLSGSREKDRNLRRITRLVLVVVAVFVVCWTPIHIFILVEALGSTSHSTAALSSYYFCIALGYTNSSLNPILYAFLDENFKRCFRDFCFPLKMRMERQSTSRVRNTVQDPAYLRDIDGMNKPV

The term EC50 denotes the concentration needed to bring the measured effect to its halfway point.

Assay [1] addresses human nociceptin receptor (ORL-1) (Homo sapiens, UniProt P41146). The assay is described as follows: Nociceptin receptor binding assay (125I-Tyr14-nociceptin, HEK293 cell membranes). As to conditions: read-out: ORL-1 IC50, inhibition of 0.5 nM 125I-Tyr14-nociceptin binding.
The target in the next assay is mu (μ) opioid receptor (Homo sapiens, UniProt P35372). Conditions: read-out: Opioid Receptor IC50 Mu; 1D4 cell line membrane, Damgo-H3 ligand.
Assay [2] concerns the target kappa (κ) opioid receptor (Homo sapiens, UniProt P41145). As to conditions: read-out: Opioid Receptor IC50 Kappa; 2C2 cell line membrane, U69593-H3 ligand.
For assay [3], the target named is delta (δ) opioid receptor (Homo sapiens, UniProt P41143). Conditions: read-out: Opioid Receptor IC50 Delta; 2D4 cell line membrane, DPDPE-H3 ligand.
Another assay addresses ORL-1 receptor (Homo sapiens, UniProt P41146). The assay is described as follows: ORL-1 calcium flux functional assay (HEK-293 cells overexpressing ORL-1 and Gqi5, FLIPR384). The format is cell-based. Conditions: read-out: ORL-1 Functional Agonist EC50; initial calcium signal after addition of test compound, HEK-293 ORL-1/Gqi5 cells. A general note: Calcium assays in cells follow changes in intracellular calcium, usually with a dye or a luminescent sensor.

Turning to `CN(C)C[C@@H](O)Cn1cc(C2CCN(C3Cc4cccc5cccc3c45)CC2)c2ccc(F)cc21` (stereo partly drawn), the IC50 is 0.101 µM in assay [1] and 0.473 µM at mu (μ) opioid receptor.

Turning to `Fc1ccc2[nH]cc(C3CCN(C4Cc5cccc6cccc4c56)CC3)c2c1` (stereo not drawn), the IC50 on mu (μ) opioid receptor was 0.507 µM; in assay [2] it was 1.89 µM.

As for `Cc1[nH]c2ccc(Cl)cc2c1C1CCN(CC2CCCCCCC2)CC1`, the IC50 in assay [1] worked out at 0.712 µM; on mu (μ) opioid receptor, 1.36 µM; in assay [2], 0.332 µM; in assay [3], 4.18 µM.

In the case of `NCC(O)Cn1cc(C2CCN([C@@H]3Cc4cccc5cccc3c45)CC2)c2ccc(F)cc21` (stereo partly drawn), the IC50 in assay [1] amounted to 0.0626 µM; at mu (μ) opioid receptor, 0.765 µM.

In the case of `Clc1ccc2[nH]cc(C3CCN(Cc4ccccc4)CC3)c2c1`, the IC50 in assay [1] is 1.14 µM; on mu (μ) opioid receptor, 0.237 µM; in assay [2], 0.329 µM.

With `Cc1[nH]c2ccc(Cl)cc2c1C1CCN(Cc2cccc3cccc(C)c23)CC1`, the IC50 in assay [2] stood at 1.57 µM.

With `Fc1ccc2[nH]cc(C3CCN(Cc4cccc5ccccc45)CC3)c2c1`, the IC50 in assay [1] is 0.806 µM; on mu (μ) opioid receptor it was 0.502 µM; in assay [2], 0.82 µM.

Turning to `Fc1ccc2c(c1)c(C1CCN(CC3CCCCCCC3)CC1)cn2C[C@H]1CO1`, the figures for the IC50 (in assay [1]; at mu (μ) opioid receptor) were 0.211 µM and 0.671 µM, respectively.

“(1R)-1-[3-(1-acenaphthen-1-yl-1,2,3,6-tetrahydro-pyridin-4-yl)-5-isocyano-indol-1-yl]-3-amino-propan-2-ol”: the IC50 in assay [1] was 1.65 µM; at mu (μ) opioid receptor, 4.14 µM.

For the compound `Clc1ccc2[nH]cc(C3=CCN(Cc4ccccc4)CC3)c2c1`, the IC50 worked out at 0.507 µM at mu (μ) opioid receptor and 1.01 µM in assay [2].

With `c1cc2c3c(cccc3c1)C(N1CCC(c3cn(C4Cc5cccc6cccc4c56)c4ncccc34)CC1)C2` (stereo not drawn) [Cpd 35, 1-acenaphthen-1-yl-3-(1-acenaphthen-1-yl-piperidin-4-yl)-1H-pyrrolo[2,3-b]pyridine], the IC50 came to 0.0813 µM in assay [1] and 1.2 µM on mu (μ) opioid receptor.

`OCCn1cc(C2CCN(C3Cc4cccc5cccc3c45)CC2)c2cccnc21` (stereo not drawn): the IC50 in assay [1] was determined as 0.0945 µM; at mu (μ) opioid receptor, 0.53 µM.

With “(1S)-3-(1-acenaphthen-1-yl-1,2,3,6-tetrahydro-pyridin-4-yl)-5-isocyano-1-oxiranylmethyl-1H-indole”, on mu (μ) opioid receptor, the IC50 was determined as 1.14 µM.

`Cc1cccc2cccc(CN3CCC(c4c[nH]c5ccc(F)cc45)CC3)c12`: the IC50 was found to be 1.78 µM in assay [1] and 4.71 µM on mu (μ) opioid receptor.

Consider `Clc1cccc2c(C3CCNCC3)c[nH]c12`, for which the IC50 at mu (μ) opioid receptor amounted to 0.256 µM.

Turning to `c1cc2c3c(cccc3c1)C(N1CCC(c3c[nH]c4ncccc34)CC1)C2` (stereo not drawn), the figures for the IC50 (in assay [1]; on mu (μ) opioid receptor; in assay [2]) were 0.0043 µM, 0.39 µM and 2.78 µM, respectively. The EC50 on ORL-1 receptor was determined as 4.2 µM.

As for `c1cnc2[nH]cc(C3CCN(CC4CCCCCCC4)CC3)c2c1`, the IC50 in assay [1] is 0.557 µM; at mu (μ) opioid receptor, 2 µM; in assay [2], 3.89 µM.

On to `c1ccc2c(CN3CCC(c4c[nH]c5ncccc45)CC3)cccc2c1` [Cpd 33, 3-(1-naphthalen-1-ylmethyl-piperidin-4-yl)-1H-pyrrolo[2,3-b]pyridine], for which the IC50 in assay [2] stood at 0.711 µM.

For `Fc1ccc2c(C3=CCN(C4Cc5cccc6cccc4c56)CC3)c[nH]c2c1` (stereo not drawn), in assay [1], the IC50 was found to be 0.164 µM.

On to `c1cc2c3c(cccc3c1)C(N1CCC(c3cn(CCOC4CCCCO4)c4ncccc34)CC1)C2` (stereo not drawn), for which the IC50 in assay [1] stood at 0.551 µM; at mu (μ) opioid receptor it was 1.02 µM.

Consider “(1R)-1-[3-(1-acenaphthen-1-yl-1,2,3,6-tetrahydro-pyridin-4-yl)-5-isocyano-indol-1-yl]-3-dimethylamino-propan-2-ol”, for which the IC50 at mu (μ) opioid receptor came out at 4.14 µM.

For the compound `CNCC(O)Cn1cc(C2CCN([C@@H]3Cc4cccc5cccc3c45)CC2)c2ccc(F)cc21` (stereo partly drawn), the IC50 is 0.103 µM in assay [1] and 0.805 µM at mu (μ) opioid receptor.

Turning to `Cc1cccc2cccc(CN3CCC(c4cn(C[C@H]5CO5)c5ccc(F)cc45)CC3)c12`, the IC50 in assay [1] is 0.138 µM.

`Fc1ccc2[nH]cc(C3CCN(CC4CCCCCCC4)CC3)c2c1`: the IC50 in assay [1] turned out to be 0.291 µM; at mu (μ) opioid receptor it was 1.08 µM; in assay [2], 0.182 µM.

As for `Cc1cccc2cccc(CN3CCC(c4c[nH]c5ncccc45)CC3)c12`, in assay [1], the IC50 was found to be 1.96 µM.

For `Cc1[nH]c2ccc(Cl)cc2c1C1CCN(C2Cc3cccc4cccc2c34)CC1` (stereo not drawn), the IC50 in assay [1] stood at 0.0107 µM; on mu (μ) opioid receptor, 0.261 µM; in assay [2] it was 0.687 µM; in assay [3], 2.75 µM. Also, on ORL-1 receptor, the EC50 was determined as 54.6 µM.

As to `Clc1cccc2c(C3CCN(C4Cc5cccc6cccc4c56)CC3)c[nH]c12` (stereo not drawn), the results for the IC50 (in assay [1]; at mu (μ) opioid receptor; in assay [2]) were 0.0574 µM, 0.264 µM and 2.6 µM, respectively. For the same compound, the 50% effective concentration (EC50) at ORL-1 receptor stood at 100 µM.

For the compound `Clc1cccc2c(C3CCN(Cc4cccc5ccccc45)CC3)c[nH]c12`, the values for the IC50 (on mu (μ) opioid receptor; in assay [2]) were 0.443 µM and 4.08 µM, respectively.

As for `Fc1ccc2c(C3CCN(C4Cc5cccc6cccc4c56)CC3)c[nH]c2c1` (stereo not drawn), the IC50 in assay [1] was 0.0529 µM; on mu (μ) opioid receptor, 0.903 µM.

As to `Cn1cc(C2CCN(C3Cc4cccc5cccc3c45)CC2)c2cccnc21` (stereo not drawn), the IC50 in assay [1] was determined as 0.0817 µM; at mu (μ) opioid receptor, 0.905 µM.

On to `OC1CN(C2Cc3cccc4cccc2c34)CCC1c1c[nH]c2ncccc12` (mixture of isomers) [Cpd 40, 1-acenaphthen-1-yl-4-(1 H-pyrrolo[2,3-b]pyridin-3-yl)-piperidin-3-ol], for which the results for the IC50 (in assay [1]; on mu (μ) opioid receptor) were 0.0025 µM and 0.169 µM, respectively.

Take `Cc1[nH]c2ccc(Cl)cc2c1C1CCN(Cc2cccc3ccccc23)CC1`: the IC50 on mu (μ) opioid receptor was determined as 0.888 µM; in assay [2] it was 0.755 µM.

Turning to `CN(C)C[C@@H](O)Cn1cc(C2CCN(CC3CCCCCCC3)CC2)c2cc(F)ccc21`, the IC50 in assay [1] was 0.971 µM; at mu (μ) opioid receptor it was 2.7 µM; in assay [2], 1.89 µM.

Regarding `Clc1cccc2c(C3CCN(CC4CCCCCCC4)CC3)c[nH]c12`, the IC50 in assay [1] worked out at 0.659 µM; on mu (μ) opioid receptor, 0.436 µM; in assay [2], 1.17 µM.

On to “(1R)-1-[3-(1-acenaphthen-1-yl-1,2,3,6-tetrahydro-pyridin-4-yl)-5-isocyano-indol-1-yl]-3-methylamino-propan-2-ol”, for which the IC50 in assay [1] turned out to be 1.82 µM; at mu (μ) opioid receptor, 2.57 µM.

Consider `CCn1cc(C2=CCN(C3Cc4cccc5cccc3c45)CC2)c2ccc(F)cc21` (stereo not drawn), for which the IC50 on mu (μ) opioid receptor worked out at 2.61 µM.
